## Ab-95 light chain CDR variants: yeast mating affinities

Source: Engelhart et al. 2022 (doi:10.1038/s41597-022-01779-4), MIT Lincoln Laboratory and A-Alpha Bio; data file from the FLAb repository.

All variants were tested on one target, the spike HR2 peptide PDVDLGDISGINAS (SARS-CoV-2).

Parent: Ab-95, a human scFv built as VH, three GGGGS repeats, VL. Only the CDRs of the light chain vary.
VH: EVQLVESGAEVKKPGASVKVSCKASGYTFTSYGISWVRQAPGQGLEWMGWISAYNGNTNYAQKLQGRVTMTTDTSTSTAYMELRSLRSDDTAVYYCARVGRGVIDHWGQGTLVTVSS
VL: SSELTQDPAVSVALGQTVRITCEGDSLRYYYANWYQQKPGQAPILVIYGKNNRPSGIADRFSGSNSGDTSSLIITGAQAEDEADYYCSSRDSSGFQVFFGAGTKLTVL

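In library AAYL52, one, two or three CDR residues were substituted; doubles and triples were drawn at random. In AlphaSeq, yeast of one mating type display the scFv and yeast of the other type display the target. After mating in shaken culture at 30 °C for 16 h, diploids were selected and their barcode pairs sequenced. Scores were corrected for input abundance and mapped to Kd with protein pairs of known affinity run in the same pool. Each pool was mated in three replicate cultures.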

Variants are written as CDR1, CDR2 and CDR3 of the light chain (limits as in the source). Parent: EGDSLRYYYAN, GKNNRPS, SSRDSSGFQVF.
Numbers give log10(Kd / nM), so 0 is 1 nM and 3 is 1 µM. Smaller is tighter.
A mean of the replicates is given; it leaves out those without a signal.
Where no diploid with the target was found in any replicate, the entry reads "no signal": below detection, most likely a poor binder, though not proof of it.
Entries are sorted by rising average, undetected variants last.
Parent in this assay: reference entry 2.31, copy in this library 2.25.
Nonspecific signal, from three strains lacking the peptide, appeared in 28% of pairings of library AAYL52, centred on 3.91 (5% of these signals below 2.90); values are not corrected for it. Also given: how often the same scFv was detected with the empty control strains.

CDR-L1,CDR-L2,CDR-L3,mean log10 Kd (nM),detected,empty controls
TGDSLRAYYAN,GKNNRPS,SSRDQSGFQVF,1.37,3/3,1/9
EHDSRRYYYAN,GDNNRPS,SSRDSSGFQVF,1.47,3/3,2/9
YGDSKRYYYAN,GKNNRPS,SSRLSSGFQVF,1.58,3/3,2/9
EGDSLRYYNAN,GKNNRPS,FSRDSSGFQVF,1.59,3/3,1/9
EGDSLRYYQAN,GKNNRPS,FSGDSSGFQVF,1.64,3/3,4/9
VGDSLRYYYAN,GKNDRPS,SSRDSSGFQQF,1.91,3/3,1/9
EGDSLRYYYAN,GSNLRMS,SSRDSSGFQVF,1.97,3/3,5/9
QGDSLRYYYAN,GDNNRPS,SSRDFSGFQVF,1.97,3/3,6/9
EGTSLRYYYAT,GKNNRPS,SSRDSSGFQVR,2.00,3/3,3/9
AGDSLRYYHPN,GKNNRPS,SSRDSSGFQVF,2.02,3/3,0/9
EGDSLRYYGAN,GKNNRPS,SSRDSSGSAVF,2.11,3/3,6/9
EGDSLRYYYAN,GKNNHPS,SSRDPSGFQVF,2.36,3/3,2/9
EGDSLRYYYAN,HKNTRPS,SSRDSSGFQYF,2.46,2/3,2/9
EYDSLRYYYAI,GKNNRPS,SSRDSSGFQVH,2.48,3/3,1/9
EGDSLEYYYAN,GKNNRPS,SSRDSSMFCVF,2.50,3/3,4/9
MGSSLRYYYAN,GKNNRPS,SSRDSRGFQVF,2.60,3/3,6/9
EGDSLRYYYAN,GKNNRPS,SSRDLSFFQQF,2.69,3/3,3/9
CGDSLRYYYAN,GKNNRPS,SSRDDSGFFVF,2.76,3/3,1/9
EGDSLRRYYAN,GKNNRPS,ESEDSSGFQVF,2.84,3/3,4/9
EKDGLQYYYAN,GKNNRPS,SSRDSSGFQVF,2.87,2/3,1/9
EGDSLRYYYAN,GMNNRPS,SSRDSSGFYVA,2.89,3/3,2/9
EGDSLRWYYAN,GKNNRPS,SKRDSSGFQYF,2.91,3/3,0/9
EGDSLRYYYAN,GKNNRPS,SSRDMSGFHNF,2.95,2/3,2/9
EGDSLRYYYAN,GKNNRPS,SSRDSSWFQFM,3.01,3/3,0/9
EGDSLRYVYAN,GKNGRPR,SSRDSSGFQVF,3.02,3/3,4/9
EGDSLRKYYAN,GKNYRDS,SSRDSSGFQVF,3.07,2/3,2/9
EGYSLRYYYAN,GKNNRPS,SSSDSSGFQVT,3.07,3/3,4/9
EGDSLRYWYAN,GKNNRPS,SSRESPGFQVF,3.07,3/3,0/9

Continued, with the values leading:

mean log10 Kd (nM),detected,empty controls,CDR-L1,CDR-L2,CDR-L3
3.23,3/3,3/9,EGDSLRYYYAN,GKNNRPS,SSGDSSGPQVF
3.29,1/3,0/9,EGDSLRYYYAN,HKNNRPS,SSRDSSGFQVN
3.34,1/3,4/9,EGDQLRYYRIN,GKNNRPS,SSRDSSGFQVF
3.45,1/3,6/9,EKDSLRYYYAN,GKCNRPS,SSRDSSGFHVF
3.55,3/3,3/9,EGDSLRCYYAN,GKKNRPS,SSRDSSGFEVF
3.62,2/3,4/9,EGDSLRYYYAN,GKRNRPS,SSRSSSGFQVF
3.79,2/3,1/9,EGDMLRYYYRN,GKNNRPS,SSVDSSGFQVF
3.82,2/3,0/9,EGDQGRYYYAN,GKNNRPS,SSRDSSGFQVF
3.86,2/3,2/9,ECDSLRYYYAN,GKRNRPS,SSRDSSTFQVF
3.93,2/3,1/9,HGRSLRYYYAN,GKNNRPS,SSRDSSMFQVF
3.95,2/3,3/9,EGDSLRYYYKN,GKANRPS,SSRDSSGFQVF
3.95,1/3,1/9,EGDSLRYYYAN,GKNTRPF,SSTDSSGFQVF
3.99,1/3,0/9,DGDSLRYYYAN,GKNNRPS,SSRDWSGFQVF
4.01,3/3,7/9,EGDSRRYIYAN,GKNNRPM,SSRDSSGFQVF
4.04,2/3,1/9,EGDSLRYYYAN,GKNARPS,SSRDSWGFQKF
4.16,2/3,5/9,EGDSLRYSYAN,GKINCPS,SSRDSSGFQVF
4.27,2/3,3/9,EGDSLRYYYAN,GVNNGPS,SSRDSIGFQVF
4.28,1/3,0/9,EGDSLRYYYAN,GKNNRPR,SSRLSSGFQVF
4.29,2/3,3/9,EGDSLRYYYAN,GKNPRFS,VSRDSSGFQVF
4.37,1/3,2/9,EGDSLRYYYAS,CKNNRPS,SSRDSSGFQVF
4.67,1/3,2/9,EGDSKRYYYAN,GKNNRPQ,SSRDSEGFQVF
5.63,1/3,1/9,ETDSLIYYYAN,GKNNRPS,SSRDSSGFWVF
no signal,0/3,1/9,EGDSPRYCYAN,GKNNRPS,SSRDSSGFFVF
no signal,0/3,1/9,EGDSLRYYMAC,GKNNRES,SSRDSSGFQVF
no signal,0/3,0/9,CGDSLRYYYAN,GKNNRPS,SSRTSSGFQGF
no signal,0/3,0/9,ELDSLRYYYAN,GKNKMPS,SSRDSSGFQVF
no signal,0/3,2/9,EGDSLRYMYAN,RKNNRPQ,SSRDSSGFQVF
no signal,0/3,2/9,EGNSLRYYYAN,GKNPRPS,SSRDSSGQQVF

Again, the first 4 entries without any signal:

{"CDR-L1": "EGDSPRYCYAN", "CDR-L2": "GKNNRPS", "CDR-L3": "SSRDSSGFFVF", "mean log10 Kd (nM)": "no signal", "detected": "0/3", "empty controls": "1/9"}
{"CDR-L1": "EGDSLRYYMAC", "CDR-L2": "GKNNRES", "CDR-L3": "SSRDSSGFQVF", "mean log10 Kd (nM)": "no signal", "detected": "0/3", "empty controls": "1/9"}
{"CDR-L1": "CGDSLRYYYAN", "CDR-L2": "GKNNRPS", "CDR-L3": "SSRTSSGFQGF", "mean log10 Kd (nM)": "no signal", "detected": "0/3", "empty controls": "0/9"}
{"CDR-L1": "ELDSLRYYYAN", "CDR-L2": "GKNKMPS", "CDR-L3": "SSRDSSGFQVF", "mean log10 Kd (nM)": "no signal", "detected": "0/3", "empty controls": "0/9"}